Reference: US20220289688A1, “RNA-TARGETING LIGANDS, COMPOSITIONS THEREOF, AND METHODS OF MAKING AND USING THE SAME” (THE UNIVERSITY OF NORTH CAROLINA AT CHAPEL HILL, priority 2019, published 2022)
pKd: −log10 of the molar value.

System: TPP riboswitch RNA
Experiment: Isothermal titration calorimetry (ITC), ligand titrated into RNA
Format: binding
Details: fragment 2 analogs, pendant groups, Table 2B

CNCc1ccc2nccnc2c1
pKd: 4.92

NCc1ccc2nccnc2c1
pKd: 5.30

Oc1cccc2nccnc12
pKd: 3.54
